Results on 2 compounds are retold here after BindingDB's records for doi:10.1016/0922-4106(95)90072-1 (Cocensys, 1995).

The chains behind the UniProt entries cited, without tags or fusion partners.
UniProt P48169, whole entry: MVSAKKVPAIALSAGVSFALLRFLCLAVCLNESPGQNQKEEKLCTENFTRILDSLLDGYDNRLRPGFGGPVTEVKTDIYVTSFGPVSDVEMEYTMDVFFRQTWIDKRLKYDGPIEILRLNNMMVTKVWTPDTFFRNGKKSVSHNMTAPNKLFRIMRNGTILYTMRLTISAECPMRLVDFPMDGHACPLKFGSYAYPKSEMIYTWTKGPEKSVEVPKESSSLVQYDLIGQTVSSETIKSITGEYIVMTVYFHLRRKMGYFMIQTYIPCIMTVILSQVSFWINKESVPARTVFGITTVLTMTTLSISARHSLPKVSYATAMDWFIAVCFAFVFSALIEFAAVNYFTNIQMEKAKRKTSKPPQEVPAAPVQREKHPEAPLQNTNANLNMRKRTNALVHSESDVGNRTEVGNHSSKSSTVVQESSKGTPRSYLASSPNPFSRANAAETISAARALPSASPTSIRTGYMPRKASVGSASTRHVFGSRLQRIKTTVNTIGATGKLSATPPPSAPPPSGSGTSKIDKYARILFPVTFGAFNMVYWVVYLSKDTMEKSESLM
UniProt Q16445, whole entry: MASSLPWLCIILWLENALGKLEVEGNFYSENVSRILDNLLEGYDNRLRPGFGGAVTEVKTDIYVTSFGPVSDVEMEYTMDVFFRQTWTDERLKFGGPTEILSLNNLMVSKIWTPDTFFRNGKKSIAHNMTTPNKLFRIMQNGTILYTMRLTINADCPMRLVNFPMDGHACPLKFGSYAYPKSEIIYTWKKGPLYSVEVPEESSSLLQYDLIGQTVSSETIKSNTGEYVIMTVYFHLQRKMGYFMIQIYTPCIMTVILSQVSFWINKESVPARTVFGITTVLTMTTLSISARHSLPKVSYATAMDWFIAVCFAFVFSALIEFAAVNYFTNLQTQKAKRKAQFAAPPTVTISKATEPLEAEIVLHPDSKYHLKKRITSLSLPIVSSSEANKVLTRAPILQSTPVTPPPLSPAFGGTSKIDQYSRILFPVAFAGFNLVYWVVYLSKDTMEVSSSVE

By Ki is commonly meant a measure of affinity in units of concentration, obtained from inhibition or displacement. Low readings indicate tighter binding, high ones weaker binding.

Assay [1] addresses Gamma-aminobutyric acid receptor subunit alpha-4 (Homo sapiens, UniProt P48169).
Assay [2] concerns the target Gamma-aminobutyric acid receptor subunit alpha-6 (Homo sapiens, UniProt Q16445).

`CCOC(=O)c1ncn2c1CN(C)C(=O)c1cc(N=[N+]=[N-])ccc1-2` [RO-154513]: the Ki in assay [1] was 0.00262 µM.
As to `CCOC(=O)c1cc2c(cn1)[nH]c1ccccc12`, the Ki in assay [2] came to 4.46 µM.
